## Ab-14 heavy chain CDR variants: yeast mating affinities

Reference: Engelhart et al. 2022, doi:10.1038/s41597-022-01779-4. File: FLAb, binding data.

All variants were tested on one target, the spike HR2 peptide PDVDLGDISGINAS (SARS-CoV-2).

The variants keep the light chain, the linker and the frameworks of Ab-14 (scFv order VH, the linker GGGGSGGGGSGGGGS, VL).
VH: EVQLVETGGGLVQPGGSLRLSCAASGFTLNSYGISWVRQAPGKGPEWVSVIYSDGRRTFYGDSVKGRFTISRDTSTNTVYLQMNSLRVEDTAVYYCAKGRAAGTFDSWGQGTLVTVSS
VL: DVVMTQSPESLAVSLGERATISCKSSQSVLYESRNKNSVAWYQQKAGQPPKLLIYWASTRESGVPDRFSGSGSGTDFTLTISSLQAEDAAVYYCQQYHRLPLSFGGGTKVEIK

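The library (AAYL49) carries one to three amino acid substitutions per variant, with no insertions or deletions. The assay is AlphaSeq: two haploid yeast populations carry antibody and antigen on their surface. After mating in shaken culture at 30 °C for 16 h, diploids were selected and their barcode pairs sequenced. Scores were corrected for input abundance and mapped to Kd with protein pairs of known affinity run in the same pool. Mating was done three times.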

Each variant is given by its three heavy chain CDRs, as the data file delimits them; those of the parent are GFTLNSYGIS, VIYSDGRRTFYGDSVK, GRAAGTFDS.
Each Kd is an estimate from the mating assay, the geometric mean of the replicates in which the pair was seen; lower is stronger.
"no signal" marks a missing value. The strain was present, yet no cells mated with the target were sequenced in any replicate, which points to weak or no binding.
In this assay the parent's reference entry averaged 4.4 nM; its copy inside this library read 13 µM (one replicate of three).
Nonspecific signal, from three strains lacking the peptide, appeared in 15% of pairings of library AAYL49, centred on 11 µM (5% of these signals below 680 nM); values are not corrected for it. The control count says in how many pairings with the empty strains this scFv gave a signal.

| CDR-H1 | CDR-H2 | CDR-H3 | Kd (apparent) | detected | signal with controls |
|---|---|---|---|---|---|
| GFTLNSYGIR | VIYSDGRRTFYGDSVK | GRAAITFDS | no signal | 0 of 3 | 0 of 9 |
| GFTLNSYGIC | VIYSKGRRTFLGDSVK | GRAAGTFDS | no signal | 0 of 3 | 0 of 9 |
| GFTLNSIGIS | VAYSQGRRTFYGDSVK | GRAAGTFDS | no signal | 0 of 3 | 0 of 9 |
| GFTLNSYGIS | VIYSDGRYTFCGDSVK | GRAAGTFDS | no signal | 0 of 3 | 1 of 9 |
| GFTLNSHGIS | VIYSFGRRTFYGDSVK | GRAAGTFDS | no signal | 0 of 3 | 0 of 9 |
| HFTLNSYGIS | VIYSDGRRTFYGDSVK | GRAAQTFPS | 450 nM | 3 of 3 | 4 of 9 |
| GFTLNSYGIS | VIYSDGRRTGYGDHVK | GRAAGEFDS | no signal | 0 of 3 | 1 of 9 |
| TFTLNSYGIS | VIYSDNRETFYGDSVK | GRAAGTFDS | no signal | 0 of 3 | 0 of 9 |
| GFTLNSYQIS | VIYSDGRRTFYGDSVK | GRARGHFDS | no signal | 0 of 3 | 0 of 9 |
| GFTENSYGIS | VFYSDGRRTFYGDSVK | GAAAGTFDS | no signal | 0 of 3 | 2 of 9 |
| GFTLNSYGIS | VIYSDGRRTFHGDSVK | ERVAGTFDS | no signal | 0 of 3 | 0 of 9 |
| GFTLNSYGIS | VIYSDGARTFYGDSVK | GRAEGTFDS | 40 µM | 1 of 3 | 6 of 9 |
| GFTVESYGIT | VIYSDGRRTFYGDSVK | GRAAGTFDS | no signal | 0 of 3 | 1 of 9 |
| GFTLNSYQIS | VIYSDGRRTFYGDNVK | GRAAGTNDS | no signal | 0 of 3 | 3 of 9 |
| GFTCNSYGIS | VIYSDGRATFYGDSVK | GWAAGTFDS | no signal | 0 of 3 | 0 of 9 |
| GFILNSYGIS | MIYSDGRRTFYGASVK | GRAAGTFDS | no signal | 0 of 3 | 0 of 9 |
| GFTLNSYGIS | YIYSDGRRTFYGDSVK | GRAYGTFDW | no signal | 0 of 3 | 1 of 9 |
| GFTLNSYGIR | VIYSQGRKTFYGDSVK | GRAAGTFDS | no signal | 0 of 3 | 0 of 9 |
| NFELNSYGIS | VIYSDGRRTEYGDSVK | GRAAGTFDS | 780 nM | 3 of 3 | 5 of 9 |
| GFTLNSYGIS | VIMSDGRRTFYGDSCK | GRCAGTFDS | 55 µM | 2 of 3 | 2 of 9 |
| GFTLNSYIIS | VIYSDGSRTFYGDSKK | GRAAGTFDS | no signal | 0 of 3 | 1 of 9 |
| GFTLNSYGIS | VIYSDGRRTFYGDSVK | GNAMGTRDS | no signal | 0 of 3 | 0 of 9 |
| GFTLNDYGIS | VIYSCGGRTFYGDSVK | GRAAGTFDS | 6.2 µM | 2 of 3 | 2 of 9 |
| GFTLNSYGIS | KIYSDGRPTFYGDSVK | GRAAGTMDS | 430 nM | 1 of 3 | 1 of 9 |
| GFTLNSYGIS | VTYSDGRRTFYGDSVK | WRAAGTFDS | 78 µM | 1 of 3 | 0 of 9 |
| GFTHNSYGIS | VIYSDDRRTFYGDSVK | WRAAGTFDS | no signal | 0 of 3 | 1 of 9 |
| GFDTNSYGIS | VIYSDGRRTFYGDSVK | GRAHGTFDS | no signal | 0 of 3 | 0 of 9 |
| GFTLNEYGSS | VIYSDGRRTFYGDSVK | GRAAGPFDS | no signal | 0 of 3 | 0 of 9 |
| GFTLNSYGIS | VIYSDGNRTFYGDSVK | GRAGGTFES | 730 µM | 2 of 3 | 6 of 9 |
| GFTLNSYGIL | VIYSDGRRIFYGDSVK | GRAAGTFDM | 54 µM | 3 of 3 | 5 of 9 |
| GFTLNSYMIS | VIYSDGRRTFYGDSVK | GRAILTFDS | no signal | 0 of 3 | 0 of 9 |
| GFTFNSYGIS | VIYSDGDRTFYGDSVK | GRAAGTFDS | 64 µM | 1 of 3 | 0 of 9 |
| GFTLNSYGIS | VIYSDGRQAFYGDSRK | GRAAGTFDS | no signal | 0 of 3 | 1 of 9 |
| GFTLDSYTIS | LIYSDGRRTFYGDSVK | GRAAGTFDS | 5.1 µM | 1 of 3 | 0 of 9 |
| GKTLNSYGIS | VIYSDGRRTFYEDFVK | GRAAGTFDS | no signal | 0 of 3 | 0 of 9 |
| GFTLNSYGIS | VIYDDGRRFFYGDSVI | GRAAGTFDS | 12 µM | 1 of 3 | 5 of 9 |
| GMTLQSYGIS | VIYSDGRRTFPGDSVK | GRAAGTFDS | 8.8 µM | 2 of 3 | 4 of 9 |
| GFTNNSYGIM | VIYSDGRRTFYGGSVK | GRAAGTFDS | 6.8 µM | 2 of 3 | 0 of 9 |

Further variants, results first:

| Kd (apparent) | detected | signal with controls | CDR-H1 | CDR-H2 | CDR-H3 |
|---|---|---|---|---|---|
| no signal | 0 of 3 | 0 of 9 | GQTLNSYGIS | VIYSDGRGTFYVDSVK | GRAAGTFDS |
| 9.3 µM | 2 of 3 | 1 of 9 | GFTLNSYGIS | VIYSDGRRTCYGDWVV | GRAAGTFDS |
| 4.2 µM | 1 of 3 | 4 of 9 | GFTLNSYGIS | VSYSDGRRTFYGDSGK | GYAAGTFDS |
| no signal | 0 of 3 | 1 of 9 | GHTQNSYGIS | VIYSDGSRTFYGDSVK | GRAAGTFDS |
| 1.2 µM | 3 of 3 | 3 of 9 | GFTLNSYGIS | VIYSDGRRTFLADSVK | GRAAGTFKS |
| no signal | 0 of 3 | 2 of 9 | GFTGNSVGIS | VIYSDGRRTFYGNSVK | GRAAGTFDS |
| 4.1 µM | 1 of 3 | 0 of 9 | GFTLNSYGIE | VIYSDGRRTFYGDYVK | GRAAGTFDS |
| no signal | 0 of 3 | 0 of 9 | GFTLFSYGIQ | VIYSDGRRTPYGDSVK | GRAAGTFDS |
| no signal | 0 of 3 | 1 of 9 | GFTLNSYGIS | VAYSDGRRTFYRDSVK | GRAAWTFDS |
| 730 nM | 1 of 3 | 1 of 9 | GFTLNSYGIS | VIYSEGRRTFRGRSVK | GRAAGTFDS |
| no signal | 0 of 3 | 0 of 9 | GFTLNSYGIS | VIYSDVRRTFYGDSKR | GRAAGTFDS |
| 31 µM | 1 of 3 | 2 of 9 | GFTLNSYGIS | VIYSDFRRKFYGDSVK | GRAAGTFDQ |
| 47 µM | 1 of 3 | 6 of 9 | GFTLNSYGIS | VISSDGRREFYGDSVK | GRAAGTFDS |
| 3.0 µM | 3 of 3 | 4 of 9 | GFTLLSYGIS | VIYSDGRRTFFGDSVK | GRAAGTFDS |
| 3.3 µM | 1 of 3 | 2 of 9 | GFTLNSYGIS | VIYSDGRDTFYGDSVK | GRAAITFDS |
| 2.8 nM | 3 of 3 | 0 of 9 | GFGLNSYGIS | VIYSDGRRTFYGDSVK | GRAAGTFDT |
| no signal | 0 of 3 | 1 of 9 | GFTLNSYGIS | VIYSDGRGTFYGDSWK | ERAAGTFDS |
| 31 µM | 2 of 3 | 5 of 9 | GFTLNSYGIS | VINSDGRRTFSSDSVK | GRAAGTFDS |
| 18 µM | 1 of 3 | 0 of 9 | PFTLNSYGSS | VIYSDGARTFYGDSVK | GRAAGTFDS |
| 9.2 µM | 1 of 3 | 3 of 9 | YFTMNSYLIS | VIYSDGRRTFYGDSVK | GRAAGTFDS |
| 52 µM | 1 of 3 | 1 of 9 | GFTLNSYGIG | VIYSDGRWTFYGDSVK | GRHAGTFDS |
| 6.5 µM | 1 of 3 | 1 of 9 | GFTLNSMGIS | VIYSDGRRTFYGDSVK | HRQAGTFDS |
| no signal | 0 of 3 | 0 of 9 | LFTLNSTGIS | VIYSDGRRTNYGDSVK | GRAAGTFDS |
| no signal | 0 of 3 | 0 of 9 | GFTLNSYGIS | VIYSDGRRTFYTDSVK | GRWAGTFVS |
| 1.4 nM | 3 of 3 | 1 of 9 | GFTLNSYGIS | VIYSDGRRTFYGDSVK | GREAGTFDN |
| 10 µM | 1 of 3 | 1 of 9 | WFTLNSYCIS | VIYSDGRRTFYGDSVK | GRAAGVFDS |
| no signal | 0 of 3 | 0 of 9 | GFTLNSYGIS | VIYSDGRRTMYGMSVK | GRAAGTFDS |
| 110 µM | 2 of 3 | 1 of 9 | GFTLNSCGIS | VVYYDGRRTFYGDSVK | GRAAGTFDS |
| no signal | 0 of 3 | 0 of 9 | GFTLNSYGIS | VYYSDGRRTFYGDSVK | CRAAGTNDS |
| 1.8 µM | 3 of 3 | 3 of 9 | GFTLNSYGIS | VIYSDGRRTFYGTCVK | GRAAGTFDS |
| no signal | 0 of 3 | 2 of 9 | GFTLQSYGIS | VIYSDERRTFYGDSVK | GRAAGQFDS |
| no signal | 0 of 3 | 1 of 9 | GFTLNSYGIS | TIYSDGRRTFYMDSVK | GRAIGTFDS |
| 1.1 mM | 1 of 3 | 5 of 9 | GFTLQLYGIS | VIYSDGRRCFYGDSVK | GRAAGTFDS |
| no signal | 0 of 3 | 0 of 9 | GFTLNGYGIS | VIVSLGRRTFYGDSVK | GRAAGTFDS |
| 13 µM | 2 of 3 | 2 of 9 | GFTLNSYGTS | VIYSDMRRTFYGDSVK | GRAAGTFDS |
| no signal | 0 of 3 | 0 of 9 | GFTLNSYDIS | VIYSDARRTFYWDSVK | GRAAGTFDS |
| no signal | 0 of 3 | 0 of 9 | GWTLNSYGIS | VIYSDGRRTVYGGSVK | GRAAGTFDS |
| 52 µM | 1 of 3 | 3 of 9 | GFTLNSYGSS | LIYSDGRRIFYGDSVK | GRAAGTFDS |
| 2.3 µM | 1 of 3 | 2 of 9 | GFTLNSYGIS | VIYSDGRREFYGDSSK | GRAAGLFDS |

Excerpt, the final 5 entries:

| CDR-H1 | CDR-H2 | CDR-H3 | Kd (apparent) | detected | signal with controls |
|---|---|---|---|---|---|
| GFTLNSYGTS | VIYSDMRRTFYGDSVK | GRAAGTFDS | 13 µM | 2 of 3 | 2 of 9 |
| GFTLNSYDIS | VIYSDARRTFYWDSVK | GRAAGTFDS | no signal | 0 of 3 | 0 of 9 |
| GWTLNSYGIS | VIYSDGRRTVYGGSVK | GRAAGTFDS | no signal | 0 of 3 | 0 of 9 |
| GFTLNSYGSS | LIYSDGRRIFYGDSVK | GRAAGTFDS | 52 µM | 1 of 3 | 3 of 9 |
| GFTLNSYGIS | VIYSDGRREFYGDSSK | GRAAGLFDS | 2.3 µM | 1 of 3 | 2 of 9 |